Laboratory results reported in ChEMBL document CHEMBL1152685, “Structural basis of the selectivity of the beta(2)-adrenergic receptor for fluorinated catecholamines” (Bioorg Med Chem, 2009).

Assays:
Assay type in all cases: cell-based
[1] = tested on: Beta-2 adrenergic receptor (Homo sapiens), P07550 [T164I]; assay: Displacement of [3H]prazosin from human adrenergic beta2 receptor T164I mutant expressed in CHO cell membrane relative to wild type
[2] = tested on: Beta-2 adrenergic receptor (Homo sapiens), P07550 [N293F]; assay: Displacement of [3H]prazosin from human adrenergic beta2 receptor N293F mutant expressed in CHO cell membrane relative to wild type
[3] = tested on: Beta-2 adrenergic receptor (Homo sapiens), P07550 [V117C]; assay: Displacement of [3H]prazosin from human adrenergic beta2 receptor V117C mutant expressed in CHO cell membrane relative to wild type
[4] = tested on: Beta-2 adrenergic receptor (Homo sapiens), P07550 [N293Q]; assay: Displacement of [3H]prazosin from human adrenergic beta2 receptor N293Q mutant expressed in CHO cell membrane relative to wild type
[5] = tested on: Beta-2 adrenergic receptor (Homo sapiens), P07550 [D192G,F193V]; assay: Displacement of [3H]prazosin from human adrenergic beta2 receptor D192G, F193V mutant expressed in CHO cell membrane relative to wild type
[6] = tested on: Beta-2 adrenergic receptor (Homo sapiens), P07550 [N293L]; assay: Displacement of [3H]prazosin from human adrenergic beta2 receptor N293L mutant expressed in CHO cell membrane relative to wild type
[7] = tested on: Beta-2 adrenergic receptor (Homo sapiens), P07550 [N293A]; assay: Displacement of [3H]prazosin from human adrenergic beta2 receptor N293A mutant expressed in CHO cell membrane relative to wild type

## NC[C@H](O)c1cc(O)c(O)cc1F
[1]
  Ratio Ki: 2.4
[2]
  Ratio Ki: 13.5
[3]
  Ratio Ki: 2.5
[4]
  Ratio Ki: 4.3
[5]
  Ratio Ki: 1.2
[6]
  Ratio Ki: 7.4
[7]
  Ratio Ki: 20.2
